In the assay the target is Cruzipain (Trypanosoma cruzi) (UniProt P25779). In words: Inhibition of Trypanosoma cruzi cruzain.

Amino acid sequences for entries named in this document (tags omitted). A change or cut given only in a name is not applied to a line headed by its entry.
UniProt P25779: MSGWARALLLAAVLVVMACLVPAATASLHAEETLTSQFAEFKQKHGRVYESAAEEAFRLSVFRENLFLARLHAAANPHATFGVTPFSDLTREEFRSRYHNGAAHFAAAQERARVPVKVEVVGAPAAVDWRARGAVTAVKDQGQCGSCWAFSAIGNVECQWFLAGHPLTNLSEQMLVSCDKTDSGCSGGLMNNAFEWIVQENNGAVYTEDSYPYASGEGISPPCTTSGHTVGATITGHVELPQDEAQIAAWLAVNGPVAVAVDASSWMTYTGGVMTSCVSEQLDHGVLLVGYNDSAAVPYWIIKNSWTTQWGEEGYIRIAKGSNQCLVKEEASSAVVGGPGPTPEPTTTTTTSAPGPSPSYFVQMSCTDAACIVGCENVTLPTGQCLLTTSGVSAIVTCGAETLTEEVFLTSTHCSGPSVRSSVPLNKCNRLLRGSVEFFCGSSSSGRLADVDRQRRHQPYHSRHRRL

Compound `CCCCC(C(=O)COc1c(F)c(F)cc(F)c1F)n1cc([C@@](C)(NCc2ccc3ncccc3c2)C2CCCC2)nn1` (stereo partly specified) displayed a Kinact of 0.025 s⁻¹.

Values taken from ChEMBL document CHEMBL1156871, “Nonpeptidic tetrafluorophenoxymethyl ketone cruzain inhibitors as promising new leads for Chagas disease chemotherapy” (J Med Chem, 2010).
